Among the data in ChEMBL document CHEMBL5029200, “Imidazoline- and Benzamidine-Based Trypanosome Alternative Oxidase Inhibitors: Synthesis and Structure-Activity Relationship Studies” (ACS Med Chem Lett, 2022) are CC50 values, retold here.

SMILES strings stand for the structures.

A word on the CC50: it is the concentration at which the toxic effect on the cells reaches its halfway point. Low readings indicate harm at low concentration, high ones better tolerance by the cells.

This data set relates to HEK293. The experiment in a line: Cytotoxicity against HEK293 cells. Particulars: human. In kind it is ADME, cell-based.

In turn, `O=[As]c1ccccc1` (stereo unspecified) yielded a CC50 of 900 nM.
